Results: patent EP4834338A1, “PHARMACEUTICAL COMPOSITION FOR DISRUPTION OF TUMOR BLOOD VESSELS” (dated 2026)

Experiments:
HUVECs [1] = assay: DNA laddering by gel electrophoresis; settings: as the concentration of epinephrine increased, FIG. 4
Description: The characteristic DNA laddering observed during the electrophoresis procedure of Example 2 was confirmed, and the results are shown in FIG. 4. It can be seen that DNA fragmentation occurred as apoptosis of HUVECs was induced by epinephrine.

[2] = tested on: FAS, cleaved caspase 3, and cleaved caspase 9 in HUVECs; assay: Western blot of apoptosis markers in HUVECs; settings: FIGS. 3a and 3b
Protocol: Western blot analysis was performed to confirm the expression of FAS, cleaved caspase-3, and cleaved caspase-9, which are activated during epinephrine-induced apoptosis of HUVECs.
HUVEC cells cultured in culture dishes were lysed with a buffer containing 50 mM Tris (pH 8.0), 150 mM NaCl, 1% Nonidet p-40, 0.5% sodium deoxycholate (SDC), 0.1% sodium dodecyl sulfate (SDS), 1× protease inhibitor cocktail. Thereafter, the lysate was cooled on ice for 30 minutes and centrifuged at 14,000 g for 10 minutes, and the supernatant was separated. Quantification was performed using a bicinchoninic acid protein assay kit (Pierce Chemical, Rockford, IL, USA), and 30 µg of the protein solution was electrophoresed on a 10% SDS-polyacrylamide gel and then transferred to a nitrocellulose membrane. After the electrophoresed membrane was reacted with blocking milk for 1 hour, primary antibodies against cleaved caspase 3, cleaved caspase 9, and FAS were reacted at room temperature for 1 hour. The membrane was washed three times at 15-minute intervals with Tris buffer containing 0.1% Tween 20, and then reacted with secondary antibodies against the primary antibodies at room temperature for 1 hour, followed by detection using a chemiluminescent reagent (Amersham Life Science, Arlington Heights, IL, USA).
A protein extracted from HUVECs was used as a positive control. The expression results of FAS, cleaved caspase 3, and cleaved caspase 9 in HUVECs according to the concentration of epinephrine are shown in FIG. 3b.

HUVECs [3] = assay: Apoptosis detection by confocal fluorescence microscopy (Apopxin/CytoCalcein); settings: epinephrine 0 to 200 µM for 24 hours, FIGS. 5a to 5e
Protocol: Using an apoptosis detection kit (blue, green) (ab176749), apoptotic cells and healthy cells can be simultaneously monitored. […] Healthy cells can be identified using CytoCalcein Violet 450 (Ex/Em = 405/450 nm), which is a dye for labeling the cytoplasm of living cells.
Vascular endothelial cells were cultured in a slide culture chamber, and epinephrine was administered to 5×10^4 cells at various concentrations (0 to 200 µM) for 24 hours. Thereafter, the cells were washed one to two times by pipetting 100 µL of assay buffer up and down. The cells were then incubated with 200 µL of assay buffer containing Apopxin/CytoCalcein at room temperature for 30 to 60 minutes. After washing the cells twice with 100 µL of assay buffer, the buffer was replaced with 100 µL of fresh assay buffer, and the cells were transferred to the stage of a confocal microscope. After tilting the halogen lamp column backward and placing a slide on the stage, the analysis software was executed, and imaging parameters were set in the Acquire tab to XYZ mode, 1024×1024 pixels, 600 Hz, Zoom 1×, average 4, accumulation 1, and rotation 0. Thereafter, a sample was placed on the microscope and focused using fluorescence. […] After checking the image while increasing the gain and intensity values, the final focal position was readjusted by turning the dial (Z position), and the image was captured, stored, and analyzed.

[4] = tested on: HUVECs (human umbilical vein endothelial cells); assay: MTS assay (CellTiter 96 AQueous One Solution Cell Proliferation Assay), cytotoxicity according to epinephrine concentration; settings: for viability of HUVECs: MTS
Protocol: Cytotoxicity against HUVECs (human umbilical vein endothelial cells) according to the concentration of epinephrine was measured using a CellTiter 96 AQueous One Solution Cell Proliferation Assay. HUVEC cells were seeded (seeding) in a 96-well plate at a density of 5×10^3 cells/well and cultured for 24 hours. Thereafter, the cells were cultured with DMEM medium containing various concentrations of epinephrine for 24 hours. The cells were then washed twice with PBS, and 100 ? of fresh growth DMEM medium was added, followed by further incubation for 48 hours. After replacing the medium with 100 ? of fresh growth DMEM medium, 20 ? of 3-(4,5-dimethylthiazol-2-yl)-5-(3-carboxymethoxyphenyl)-2-(4-sulfophenyl)-2H-tetrazolium (MTS) was added. After an additional 2 hours of incubation, absorbance was measured at 490 nm using a BIO-RAD Model 680 microplate reader (Spark, TECAN, CA, USA).

[5] = In vivo experiment 2: body weight decrease or death in xenografted mice; settings: 5 mg of pH 8.4 5-FU, 26 mice
Description: The animals used in the experiment were thirty-eight 5-week-old male nude mice (Crj: BALB/c-nu/nu mice, male) produced by Orient, each having an average body weight of approximately 30 g. The mice were used after a one-week acclimation period at the research institute. Human gastric cancer cells (5×10^6 cells/100 ? (PBS)) were implanted into the dorsal subcutaneous fat layer of each nude mouse. The size of the tumors was periodically measured, and when the tumor diameter reached 1 cm, a drug administration experiment was conducted.

Row | Compound | DNA fragmentation due to apoptosis of HUVECs (HUVECs [1]) | expression level of FAS [2] | expression level of cleaved caspase 3 [2] | expression level of cleaved caspase 9 [2] | number of apoptotic cells (HUVECs [3]) | number of healthy cells (HUVECs [3]) | viability of HUVECs ([4]; 100µm of 5-FU co-administered, various concentrations of epinephrine, FIG. 2b) | effect on 5-FU-induced cell death ([4]; HUVECs, 100µm of 5-FU co-administered) | viability of HUVECs ([4]; various concentrations of epinephrine for 24 hours, FIG. 2a) | mice that exhibited a rapid decrease in body weight or died (number) [5] | mice that exhibited a rapid decrease in body weight or died (share) [5]
1 | CNC[C@H](O)c1ccc(O)c(O)c1 | increased | increased as the concentration of epinephrine increased | increased as the concentration of epinephrine increased | increased as the concentration of epinephrine increased | increased in proportion to the concentration of epinephrine | decreased | decreased in proportion to the concentration of epinephrine | synergistic effect | decreased in proportion to the concentration of epinephrine |  | 
2 | O=c1[nH]cc(F)c(=O)[nH]1 |  |  |  |  |  |  |  |  |  | six | about 23.1%
